This experiment concerns the target T1, human recombinant sEH (Homo sapiens, UniProt P34913).
T1 construct: purchased 10011671
The experiment can be described thus: Cell-free sEH activity assay (PHOME fluorescence, inhibitor screening kit). It is filed as biochemical. The conditions noted are these: 5 µM.

By UniProt entry, the sequences of proteins in these tests, tags left out.
UniProt P34913, whole entry: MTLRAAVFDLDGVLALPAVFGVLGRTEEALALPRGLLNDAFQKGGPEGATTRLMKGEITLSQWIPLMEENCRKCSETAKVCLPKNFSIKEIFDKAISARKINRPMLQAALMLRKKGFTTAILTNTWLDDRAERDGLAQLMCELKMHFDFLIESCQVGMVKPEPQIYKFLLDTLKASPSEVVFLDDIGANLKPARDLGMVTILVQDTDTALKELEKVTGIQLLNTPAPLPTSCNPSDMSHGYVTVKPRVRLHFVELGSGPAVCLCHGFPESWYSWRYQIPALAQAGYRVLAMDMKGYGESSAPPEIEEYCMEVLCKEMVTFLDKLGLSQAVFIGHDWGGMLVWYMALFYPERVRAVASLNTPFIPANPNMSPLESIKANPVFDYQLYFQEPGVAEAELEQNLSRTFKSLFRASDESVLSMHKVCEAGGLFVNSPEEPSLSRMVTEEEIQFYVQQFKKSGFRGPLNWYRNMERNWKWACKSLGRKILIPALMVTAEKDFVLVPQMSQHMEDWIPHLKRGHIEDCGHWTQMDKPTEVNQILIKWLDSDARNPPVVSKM

For the substance AUDA [reference compound], the “Residual activity of sEH, mean ± SD (%)” value was 6.1 ± 0.8%.

These data come from publication PMC11653428, “5‐methyl‐2‐carboxamidepyrrole‐based novel dual mPGES‐1/sEH inhibitors as promising anticancer candidates” (Archiv Der Pharmazie, 2024).
